Test results as given in patent publication US20060205037A1, “Modified transferrin fusion proteins” (priority 2003, published 2006).

Target: T1, rat GLP-1 receptor (Rattus norvegicus, UniProt P32301)
T1 construct: expressed in transfected cells; host or cells: CHO cells
T1 sequence (P32301 22-463): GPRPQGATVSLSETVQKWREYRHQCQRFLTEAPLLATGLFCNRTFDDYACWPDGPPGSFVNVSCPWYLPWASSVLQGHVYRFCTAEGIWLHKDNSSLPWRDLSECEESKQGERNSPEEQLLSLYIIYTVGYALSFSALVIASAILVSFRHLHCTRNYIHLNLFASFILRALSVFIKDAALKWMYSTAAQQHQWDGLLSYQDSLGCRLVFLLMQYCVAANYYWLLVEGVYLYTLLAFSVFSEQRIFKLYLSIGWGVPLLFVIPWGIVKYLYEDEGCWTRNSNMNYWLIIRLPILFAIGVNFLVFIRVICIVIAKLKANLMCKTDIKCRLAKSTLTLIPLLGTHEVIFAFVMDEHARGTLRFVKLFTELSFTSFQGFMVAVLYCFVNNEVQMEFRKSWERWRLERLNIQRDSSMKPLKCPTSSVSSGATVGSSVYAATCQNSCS
Assay: cAMP assay of fermented GLP-1/linker/mTf constructs
Assay type: cell-based

potency (conclusions in words) (conclusions of Example 2): greatest improvement in potency | EC50 (running text of Example 2, read-out: EC50 / potency in cAMP assay): 3 nM
B1: pREX0585: nL GLP-1 (7-37; A8G, K34A) (PEAPTD)2 mTf; mTf lacking N-glycosylation at sites 413 and 611 (protein)
chain: HGEGTFTSDVSSYLEGQAAKEFIAWLVAGRGPEAPTDPEAPTDVPDKTVRWCAVSEHEATKCQSFRDHMKSVIPSDGPSVACVKKASYLDCIRAIAANEADAVTLDAGLVYDAYLAPNNLKPVVAEFYGSKEDPQTFYYAVAVVKKDSGFQMNQLRGKKSCHTGLGRSAGWNIPIGLLYCDLPEPRKPLEKAVANFFSGSCAPCADGTDFPQLCQLCPGCGCSTLNQYFGYSGAFKCLKDGAGDVAFVKHSTIFENLANKADRDQYELLCLDNTRKPVDEYKDCHLAQVPSHTVVARSMGGKEDLIWELLNQAQEHFGKDKSKEFQLFSSPHGKDLLFKDSAHGFLKVPPRMDAKMYLGYEYVTAIRNLREGTCPEAPTDECKPVKWCALSHHERLKCDEWSVNSVGKIECVSAETTEDCIAKIMNGEADAMSLDGGFVYIAGKCGLVPVLAENYNKADNCEDTPEAGYFAVAVVKKSASDLTWDNLKGKKSCHTAVGRTAGWNIPMGLLYNKINHCRFDEFFSEGCAPGSKKDSSLCKLCMGSGLNLCEPNNKEGYYGYTGAFRCLVEKGDVAFVKHQTVPQNTGGKNPDPWAKNLNEKDYELLCLDGTRKPVEEYANCHLARAPNHAVVTRKDKEACVHKILRQQQHLFGSNVADCSGNFCLFRSETKDLLFRDDTVCLAKLHDRNTYEKYLGEEYVKAVGNLRKCSTSSLLEACTFRRP
modifications: GLP-1-tf fusion protein
